In patent publication US20200325490A1 (AARHUS UNIVERSITET, published 2020):

Assays:
[1] = biological target: T1, Aspergillus ficuum phytase (EC 3.1.3.8), P34752
T1 chain: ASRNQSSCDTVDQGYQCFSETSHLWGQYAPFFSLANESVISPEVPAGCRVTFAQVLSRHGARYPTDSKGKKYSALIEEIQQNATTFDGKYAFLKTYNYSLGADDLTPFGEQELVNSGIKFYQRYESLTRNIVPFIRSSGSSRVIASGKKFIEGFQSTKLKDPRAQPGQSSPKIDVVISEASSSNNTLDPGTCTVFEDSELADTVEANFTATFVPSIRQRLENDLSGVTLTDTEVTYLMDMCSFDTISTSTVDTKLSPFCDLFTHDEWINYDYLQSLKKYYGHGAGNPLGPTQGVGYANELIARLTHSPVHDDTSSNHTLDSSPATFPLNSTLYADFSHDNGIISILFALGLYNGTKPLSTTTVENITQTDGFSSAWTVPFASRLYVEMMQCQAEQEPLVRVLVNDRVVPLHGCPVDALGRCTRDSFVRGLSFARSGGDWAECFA

[2] = biological target: wheat TaPAPhy phytase (EC 3.1.3.26)

B1: HvNEP-1 (Hordeum vulgare nepenthesin-1-type aspartic endoprotease), ΔHvNEP-1 with C-terminal His6 tag, expressed in Pichia pastoris KM71H (enzyme)
chain: DADTPKVAMASSGAGSSFRLAAHHDHALSRSDDGFLHVQSRLDNLLPSEANVTTLRPPVASPLDMAFSVVVGLGSGKGRHDYNLKLDASGSLTWVQCKPCNPKQPQRGPLFDPKASSTFQQVAGTSQICHPPYPMEPAGQQCAFHLSGMGGMSVHGYVAMENLTMGPEAMKEFVFGCSHSTGHFNSHGTFAGVAAMGKMPTSLVMQVAARGQTRFSYCLFSGGASRHGFLRFGADVPSRSGLRTTKILPALDAHESQYYVSLVGISLDAKRLTGVRPEMFARQRGGEGGCVVDPGTPLTVLVREAYRVVEDAVWSDLRRNKAERVQREGYGLCVRKTAEIKRHLQSLSLHFAEETARLVVKPEQLFVAVESRLHGAALCLAMRPGERTVIGALQQVDTRFVYDLKDAKLSFASEPCSQDTAGVDHHHHHH
notes: also called HvNEP-1 protease; truncated HvNEP-1
Question: Which residual phytase activity [1] does the source give for B1 here?
Answer: Its residual phytase activity is “residual phytase activity of A. ficuum was reduced at phytase: protease ratios of 1:500”.

Question: And the residual phytase activity [2]?
Answer: The residual phytase activity was “residual TaPAPhy phytase activity was first reduced at phytase: protease ratios of 1:100”.
